Experimental data from ChEMBL document CHEMBL3621069 (Bioorg Med Chem Lett, 2015).

Target: Tyrosine-protein kinase SYK (Homo sapiens, UniProt P43405)
Assay: Inhibition of purified full-length human SYK pre-incubated for 30 mins at room temperature before Ulight-TK peptide substrate addition and measured 1 hr after substrate addition by cell free kinase assay

IC50 [nM]	SMILES
0.7	Cc1nn(-c2ccnc(Nc3ccc4c(c3)c(Cl)cn4C)n2)cc1CN1CC(O)C1
19.5	Cc1nn(-c2ccnc(Nc3ccc4c(cnn4C)c3)n2)cc1CN1CC(O)C1
